Measured values from ChEMBL document CHEMBL4004807 (J Med Chem, 2017).
Active and inactive are the calls of the source. The rule behind the calls is not given here.

Protein sequences, listed by entry. Tags and fused reporters are not part of them. Lines headed by an entry give the natural chain unless they say otherwise; changes in a name come on top.
UniProt P43119: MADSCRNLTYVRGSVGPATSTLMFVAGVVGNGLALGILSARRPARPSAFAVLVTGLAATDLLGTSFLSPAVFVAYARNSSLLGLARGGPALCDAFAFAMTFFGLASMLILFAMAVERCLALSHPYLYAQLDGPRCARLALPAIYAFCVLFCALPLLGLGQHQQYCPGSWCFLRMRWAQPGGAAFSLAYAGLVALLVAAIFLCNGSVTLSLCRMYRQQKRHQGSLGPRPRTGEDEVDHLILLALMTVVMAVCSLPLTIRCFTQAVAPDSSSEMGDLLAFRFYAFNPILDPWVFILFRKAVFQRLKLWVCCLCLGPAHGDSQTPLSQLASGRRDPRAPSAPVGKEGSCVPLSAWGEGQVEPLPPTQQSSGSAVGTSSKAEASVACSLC

Biological target: Prostacyclin receptor (Homo sapiens, UniProt P43119)
Test: Agonist activity at IP receptor in PAH patient-derived primary pulmonary arterial smooth muscle cells assessed as induction of cAMP levels after 1 hr by HTRF method
Format: functional

Activity: Active
SMILES: O=C(O)COC[C@H]1CC[C@H](COC(=O)N(c2ccccc2)c2ccc(Cl)cc2)CC1
